These are literature values, as cited in US20150313892A1, “PHARMACEUTICAL COMPOSITIONS FOR TREATING PAIN ASSOCIATED WITH DYSMENORRHEA” (priority 2014, published 2015).

By UniProt entry, the sequences of proteins in these tests, tags left out.
UniProt P35372, whole entry: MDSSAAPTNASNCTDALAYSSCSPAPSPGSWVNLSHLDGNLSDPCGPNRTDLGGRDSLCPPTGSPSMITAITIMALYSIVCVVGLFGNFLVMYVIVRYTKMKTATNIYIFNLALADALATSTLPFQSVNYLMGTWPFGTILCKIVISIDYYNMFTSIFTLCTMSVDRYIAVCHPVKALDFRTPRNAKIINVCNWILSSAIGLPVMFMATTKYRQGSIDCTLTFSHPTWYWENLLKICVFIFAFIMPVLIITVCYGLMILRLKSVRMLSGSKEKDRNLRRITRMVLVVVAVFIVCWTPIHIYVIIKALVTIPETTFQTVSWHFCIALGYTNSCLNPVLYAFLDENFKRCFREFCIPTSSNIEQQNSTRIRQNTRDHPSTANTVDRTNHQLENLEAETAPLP

Data set [1] deals with μ-opioid (Homo sapiens, UniProt P35372). To be noted: read-out: Binding Constant Ki, μ-opioid; cited from earlier work.
The conditions of data set [2]: versus tramadol; cited from earlier work.

In the case of O-desmethyltramadol [(±) M1], the Ki (in general, the equilibrium dissociation constant of an inhibitor or competing ligand from its target) in data set [1] was 12.1 nM. Besides, the “analgesic potency relative to the parent drug” value in data set [2] is “at least twice”.
